Biological target: Purified rabbit muscle actin (Cytoskeleton Inc.) (rabbit, UniProt P68135 3-377)
Assay: cell-based or functional assay

**Q.** Which results are given for SRFEVWPYL [SS16 less active synthetic peptide]?
**A.** bundling activity at molar ratio peptide:actin = 1:1: 1 molar ratio peptide:actin; effective peptide to actin ratio for bundling: > 16 molar ratio peptide:actin
